From patent US6995188B2 (priority 2002, dated 2006)

Experiments:
[1] = tested on: P388 lymphocytic leukemia cells; details: intraperitoneally, daily for 5 days, cited from earlier work
[2] = Brief acute toxicity testing in Swiss-Webster mice
[3] = tested on: panel of 60 tumor cell lines; assay: Sulforhodamine B assay, NIH panel of 60 tumor cell lines; format: cell-based, human; details: 48 hours
[4] = tested on: human leukemia cell lines; assay: 3 day MTT assay/trypan blue exclusion, human leukemia cell lines; format: cell-based
[5] = tested on: caspase 3 and caspase 3-like activities; assay: Detection of caspase activity (PhiPhiLux); format: cell-based, human; details: HL-60 cells, 48 and 72 hours

Compound: C[As](C)S[C@@H]1O[C@H](CO)[C@H](O)[C@H](O)[C@H]1O
- % T/C ([1]; dose 50 mg/kg): 125%

Compound: 1,2,3,4,-tetra-O-acetyl-6-S-dihexadecylarsino-6-thio-β-D-glucopyranose
- % T/C ([1]; dose 100 mg/kg): 125%

Compound: S-dimethylarsino-2-thiobenzoic acid
- LD50 [2]: 50 mg/kg
- anticancer activity, NIH panel [3]: showed evidence of activity at low concentrations against a variety of tumor cell lines
- anti-cancer activity against a panel of human leukemia cell lines [4]: significant anti-cancer activity

Compound: 1,2,3,4,-tetra-O-acetyl-6-S-dicyclohexylarsino-6-thio-β-D-glucopyranose
- % T/C ([1]; dose 25 mg/kg): 120%

Compound: Bis [S-dimethylarsino-α-dihydrolipoic acid
- % T/C ([1]; dose 50 mg/kg): 128%

Compound: CC(=O)N[C@@H]1[C@@H](O)[C@H](O)[C@@H](CS[As](C)C)O[C@@H]1O
- % T/C ([1]; dose 100 mg/kg): 125%

Compound: S-dimethylarsino-thiosuccinic acid
- activation of caspases (PhiPhiLux staining) [5]: activation of caspases
- aqueous solubility (Solubility): about 15 mg/mL
- solubility in ethanol (Solubility; ethanol): more than 100 mg/mL

Read-outs that look alike come from different tables or passages of the source.
